Reference: PubChem BioAssay AID602244 (Sanford-Burnham Center for Chemical Genomics, 2012)
This is a selection; strong and weak results do not stand in their true shares. Some results for these compounds are left out of this collection, so the calls shown say nothing about other tests. Activity calls are given as the source filed them. Rule as the data show it: active = inhibition above about 34% (passing the limit was not always enough); inactive = the rest.

Protein sequences, listed by entry. Tags and fused reporters are not part of them.
UniProt O00574, whole entry: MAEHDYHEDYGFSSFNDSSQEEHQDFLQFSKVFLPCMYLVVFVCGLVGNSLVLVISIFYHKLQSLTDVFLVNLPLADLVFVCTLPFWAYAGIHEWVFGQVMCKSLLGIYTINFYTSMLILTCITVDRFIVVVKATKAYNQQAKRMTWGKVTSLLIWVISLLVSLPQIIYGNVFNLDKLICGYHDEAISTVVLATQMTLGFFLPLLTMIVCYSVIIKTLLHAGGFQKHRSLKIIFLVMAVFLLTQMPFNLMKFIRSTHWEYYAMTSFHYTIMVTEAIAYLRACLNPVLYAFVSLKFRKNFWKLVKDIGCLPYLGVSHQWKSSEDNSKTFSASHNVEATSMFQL

The compounds below were run against C-X-C chemokine receptor type 6 (Homo sapiens) (UniProt O00574) (assay: CXCR6 receptor inhibitors, primary screen, cell-based, beta-arrestin, luminescence, CHO-K1 PathHunter, 1536-well (AID 602244;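 also: antagonist mode with CXCL16 agonist at 10 nM final; 0% = 10 nM CXCL16 with DMSO and 100% = unstimulated wells without agonist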)). Settings: at 20 µM, active compounds read high.
For `Cc1ccc(C(=O)NCC2(N3CCCCC3)CCCCC2)cc1`, the inhibition was inactive: 13.1%. With `CCN(CC)CC(C)C(C)OC(=O)C(O)(c1ccccc1)c1ccccc1` (stereo unspecified) the inhibition was inactive: 11.5%. With `COc1cc(SC)ccc1C(=O)NCC1(N(C)C)CCCCC1` the inhibition was inactive: 1.4%. `CC(C)N1C(=O)CC2(CCN(CCOC(=O)C(O)(c3ccccc3)c3ccccc3)CC2)C1=O` was tested, and the inhibition was inactive: -3.8%. In the case of `CN1[C@@H]2CC[C@H]1CC(OC(=O)C(O)(c1ccccc1)c1ccccc1)C2` (stereo partly specified), the inhibition is reported as inactive: 5.1%. In the case of `O=C(NCC1(N2CCCCC2)CCCCC1)c1cc([N+](=O)[O-])ccc1Cl`, the inhibition is reported as inactive: 3.5%. `COc1ccc(C(=O)NCC2(N(C)C)CCCCC2)cc1` was tested, and the inhibition was inactive: 3.8%. With `CCN1CCCC(OC(=O)C2(O)c3ccccc3C=Cc3ccccc32)C1` (stereo unspecified) the inhibition was inactive: -3%. `Cc1cc(C(=O)NCC2(N3CCCCC3)CCCCC2)ccc1[N+](=O)[O-]` was tested, and the inhibition was inactive: 2.3%. For `O=C(NCC1(N2CCCCC2)CCCCC1)c1cccc(Br)c1`, the inhibition was inactive: -0.8%. In the case of `C=CCN1CCN(CCOC(=O)C(O)(c2ccccc2)c2ccccc2)CC1`, the inhibition is reported as inactive: -2.3%. With `O=C(NCC1(N2CCCCC2)CCCCC1)c1cc(F)c(F)cc1Cl` the inhibition was inactive: -3%. `Cc1ccccc1C(=O)NCC1(N2CCCCC2)CCCCC1` was tested, and the inhibition was inactive: -1.2%. For `CN(C)c1ccc(C(=O)NCC2(N(C)C)CCCCC2)cc1`, the inhibition was inactive: -3.3%. In the case of `CN(C)C1CCCC1OC(=O)C(O)(c1ccccc1)c1ccccc1` (stereo unspecified), the inhibition is reported as inactive: 3.9%. For `O=C(NCC1(N2CCCCC2)CCCCC1)c1cccc(Cl)c1`, the inhibition was inactive: 5.3%. `COc1cccc(C(=O)NCC2(N3CCCCC3)CCCCC2)c1` was tested, and the inhibition was inactive: -2.9%. In the case of `COc1ccc(Cl)cc1C(=O)NCC1(N(C)C)CCCCC1`, the inhibition is reported as inactive: -1.5%. With `COc1cc(C(=O)NCC2(N(C)C)CCCCC2)c([N+](=O)[O-])cc1OC` the inhibition was inactive: -10.2%. In the case of `CN(C)C1(CNC(=O)c2ccc(Br)cc2)CCCCC1`, the inhibition is reported as inactive: 6.7%. For `CC(C)Oc1ccc(C(=O)NCC2(N(C)C)CCCCC2)cc1`, the inhibition was inactive: -0.6%. In the case of `O=C(OCCN1CCCC1)C(O)(c1ccccc1)c1ccccc1`, the inhibition is reported as inactive: 0.5%. With `CN(C)c1cccc(C(=O)NCC2(N(C)C)CCCCC2)c1` the inhibition was inactive: -0.7%. With `C=C(C)C#CC(O)(C(=O)OC1CCN(C)CC1)c1ccccc1` (stereo unspecified) the inhibition was inactive: 0.6%. For `COc1ccc(Br)c(C(=O)NCC2(N3CCCCC3)CCCCC2)c1`, the inhibition was inactive: 15.1%. `O=C(OC1CN2CCC1CC2)C(CO)(c1ccccc1)c1ccccc1` (stereo unspecified) was tested, and the inhibition was inactive: 4.5%.
